ChEMBL document CHEMBL1127482 (J Med Chem, 1994)

Chains of the proteins cited; added tags and fusions are not shown. Residues count along the entry.
UniProt P08648, 895-1049 limits assumed: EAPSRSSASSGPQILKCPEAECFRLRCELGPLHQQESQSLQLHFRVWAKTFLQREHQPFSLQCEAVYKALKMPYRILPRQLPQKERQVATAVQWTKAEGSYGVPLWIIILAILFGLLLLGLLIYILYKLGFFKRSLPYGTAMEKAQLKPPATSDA
UniProt P08648, 42-894 limits assumed: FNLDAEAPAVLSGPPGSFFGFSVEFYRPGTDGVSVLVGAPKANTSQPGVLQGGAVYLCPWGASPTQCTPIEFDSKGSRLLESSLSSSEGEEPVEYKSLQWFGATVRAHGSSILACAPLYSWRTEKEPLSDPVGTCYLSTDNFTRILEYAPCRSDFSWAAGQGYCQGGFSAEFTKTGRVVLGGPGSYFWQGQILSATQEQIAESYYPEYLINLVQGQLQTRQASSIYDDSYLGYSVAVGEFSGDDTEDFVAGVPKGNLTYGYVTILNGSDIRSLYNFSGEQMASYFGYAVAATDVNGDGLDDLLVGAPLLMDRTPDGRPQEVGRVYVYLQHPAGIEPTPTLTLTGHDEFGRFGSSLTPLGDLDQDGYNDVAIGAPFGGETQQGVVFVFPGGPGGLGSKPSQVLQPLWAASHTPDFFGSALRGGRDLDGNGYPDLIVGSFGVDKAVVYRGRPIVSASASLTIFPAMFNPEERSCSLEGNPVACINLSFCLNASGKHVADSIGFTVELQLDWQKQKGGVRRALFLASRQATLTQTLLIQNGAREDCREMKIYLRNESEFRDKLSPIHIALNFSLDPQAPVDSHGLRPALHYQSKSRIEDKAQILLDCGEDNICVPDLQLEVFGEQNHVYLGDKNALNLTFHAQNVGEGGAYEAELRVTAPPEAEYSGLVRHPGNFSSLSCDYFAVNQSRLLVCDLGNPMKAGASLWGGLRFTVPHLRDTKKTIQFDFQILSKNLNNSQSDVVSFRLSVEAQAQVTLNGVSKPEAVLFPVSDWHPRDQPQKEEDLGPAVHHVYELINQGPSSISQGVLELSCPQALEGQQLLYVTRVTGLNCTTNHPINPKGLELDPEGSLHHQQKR
UniProt P05106, 27-788 limits assumed: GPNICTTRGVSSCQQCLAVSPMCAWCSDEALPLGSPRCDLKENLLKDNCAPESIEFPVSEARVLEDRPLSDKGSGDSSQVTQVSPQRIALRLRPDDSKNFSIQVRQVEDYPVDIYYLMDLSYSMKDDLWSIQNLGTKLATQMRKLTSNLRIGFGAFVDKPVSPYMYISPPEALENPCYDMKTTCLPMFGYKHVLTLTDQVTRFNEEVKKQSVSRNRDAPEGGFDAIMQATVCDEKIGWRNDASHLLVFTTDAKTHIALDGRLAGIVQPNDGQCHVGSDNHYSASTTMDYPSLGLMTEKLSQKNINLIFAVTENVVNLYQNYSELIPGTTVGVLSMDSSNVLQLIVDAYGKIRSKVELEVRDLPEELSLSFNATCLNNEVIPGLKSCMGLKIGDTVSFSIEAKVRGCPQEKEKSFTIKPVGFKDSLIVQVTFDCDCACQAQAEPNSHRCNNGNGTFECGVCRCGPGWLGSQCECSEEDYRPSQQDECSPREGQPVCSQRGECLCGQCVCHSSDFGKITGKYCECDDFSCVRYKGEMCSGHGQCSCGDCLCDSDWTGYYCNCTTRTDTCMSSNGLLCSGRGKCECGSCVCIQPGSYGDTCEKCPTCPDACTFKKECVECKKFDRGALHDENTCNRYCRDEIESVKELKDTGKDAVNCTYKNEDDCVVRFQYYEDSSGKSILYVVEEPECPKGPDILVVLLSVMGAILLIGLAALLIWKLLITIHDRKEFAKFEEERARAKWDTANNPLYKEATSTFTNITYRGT
UniProt P08514, 32-887 limits assumed: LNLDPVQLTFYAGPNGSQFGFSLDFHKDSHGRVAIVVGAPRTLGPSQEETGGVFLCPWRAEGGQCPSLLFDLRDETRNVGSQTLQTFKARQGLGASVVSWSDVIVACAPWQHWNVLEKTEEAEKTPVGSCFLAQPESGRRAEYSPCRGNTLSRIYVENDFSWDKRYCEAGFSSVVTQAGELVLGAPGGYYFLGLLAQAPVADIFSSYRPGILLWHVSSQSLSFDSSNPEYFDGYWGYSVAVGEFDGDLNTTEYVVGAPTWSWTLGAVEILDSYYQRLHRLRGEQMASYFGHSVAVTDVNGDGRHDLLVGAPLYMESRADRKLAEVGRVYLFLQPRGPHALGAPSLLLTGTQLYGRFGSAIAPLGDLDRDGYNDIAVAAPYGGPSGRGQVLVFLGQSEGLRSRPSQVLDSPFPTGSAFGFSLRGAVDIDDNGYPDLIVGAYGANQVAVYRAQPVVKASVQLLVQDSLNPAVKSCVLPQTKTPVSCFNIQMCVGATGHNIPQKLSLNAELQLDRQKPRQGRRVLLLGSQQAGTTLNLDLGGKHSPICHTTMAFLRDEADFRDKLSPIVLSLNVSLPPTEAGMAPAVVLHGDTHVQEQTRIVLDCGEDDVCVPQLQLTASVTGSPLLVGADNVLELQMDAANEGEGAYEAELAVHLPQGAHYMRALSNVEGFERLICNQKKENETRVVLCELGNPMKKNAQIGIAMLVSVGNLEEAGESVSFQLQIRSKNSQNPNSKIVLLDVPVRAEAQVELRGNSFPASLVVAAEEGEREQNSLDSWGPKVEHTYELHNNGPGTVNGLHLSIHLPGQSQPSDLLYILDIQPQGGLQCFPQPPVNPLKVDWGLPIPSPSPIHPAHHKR
UniProt P08514, 891-1039 limits assumed: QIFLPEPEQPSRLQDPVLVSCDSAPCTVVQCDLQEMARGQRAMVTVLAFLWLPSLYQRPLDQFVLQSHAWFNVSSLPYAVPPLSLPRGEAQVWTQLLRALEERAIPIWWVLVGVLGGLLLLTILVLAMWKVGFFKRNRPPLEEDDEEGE

What was measured:
[1] = molecular target: Integrin alpha-5/beta-1 (Homo sapiens, UniProt P05556+P08648); test: Binding affinity against integrin alpha5-beta1 in enzyme linked immunosorbent assay (ELISA); format: protein-complex assay
[2] = molecular target: Integrin alpha-IIb/beta-3 (Homo sapiens, UniProt P05106+P08514); test: Binding affinity against integrin alpha 2b-beta 3 in enzyme linked immunosorbent assay (ELISA); format: protein-complex assay
How it was run: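 Purified human platelet αIIbβ3 (from outdated platelets, octyl glucoside extract) in TBS with 20 mM octyl glucoside, 2 mM MgCl2 and 2 mM CaCl2 binds to plate-coated human fibrinogen (10 µg/mL in TBS) with 10-fold serial peptide dilutions for 3 h at room temperature. Bound receptor is detected with rabbit anti-αIIbβ3, then HRP anti-rabbit IgG, with o-phenylenediamine/H2O2 at pH 5.0. IC50 is reported.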

SMILES: COc1ccc(C[C@@H]2NC(=O)[C@H](CC(=O)O)NC(=O)CNC(=O)[C@H](CCCN=C(N)N)NC(=O)[C@@H]3CCCN3C(=O)[C@H](CC(N)=O)NC(=O)[C@@H](NC(C)=O)CSSC[C@@H](C(N)=O)NC(=O)[C@H](CCCN=C(N)N)NC2=O)cc1
- IC50 [1]: 8200 nM

SMILES: CC(C)C[C@@H]1NC(=O)[C@H](CC(=O)O)NC(=O)CNC(=O)[C@H](CCCNC(=N)N)NC(=O)[C@H](Cc2c[nH]cn2)NC(=O)CNC(=O)CC2(CCCCC2)SSC[C@@H](C(=O)N[C@@H](C)C(=O)O)NC(=O)[C@H](CCCNC(=N)N)NC1=O
- IC50 [1]: 830 nM

SMILES: COc1ccc(C[C@@H]2NC(=O)[C@H](CC(=O)O)NC(=O)CNC(=O)[C@H](CCCNC(=N)N)NC(=O)[C@@H]3CCCN3C(=O)[C@H](CC(N)=O)NC(=O)[C@H](NC(C)=O)C(C)(C)SSC[C@@H](C(N)=O)NC(=O)[C@H](CCCNC(=N)N)NC2=O)cc1
- IC50 [1]: 6800 nM
- IC50 [2]: 1 nM

SMILES: COc1ccc(C[C@@H]2NC(=O)[C@H](CC(=O)O)NC(=O)CNC(=O)[C@H](CCCN=C(N)N)NC(=O)[C@@H]3CCCN3C(=O)[C@H](CC(N)=O)NC(=O)[C@@H](NC(C)=O)CSSC[C@@H](C(N)=O)NC(=O)[C@H](CCCN)NC2=O)cc1
- IC50 [1]: 440 nM

SMILES: COc1ccc(C[C@@H]2NC(=O)[C@H](CC(=O)O)NC(=O)CNC(=O)[C@H](CCCNC(=N)N)NC(=O)[C@@H]3CCCN3C(=O)[C@H](CC(N)=O)NC(=O)[C@@H](NC(C)=O)CSSC[C@@H](C(N)=O)NC(=O)[C@H](C)NC2=O)cc1
- IC50 [1]: 840 nM
- IC50 [2]: 50 nM

SMILES: CC(C)C[C@@H]1NC(=O)[C@H](CC(=O)O)NC(=O)CNC(=O)[C@H](CCCNC(=N)N)NC(=O)[C@H](Cc2c[nH]cn2)NC(=O)CNC(=O)[C@H](NC(=O)[C@@H](N)CCCNC(=N)N)C(C)(C)SSC[C@@H](C(=O)N[C@@H](CCCNC(=N)N)C(=O)O)NC(=O)[C@H](CCCNC(=N)N)NC1=O
- IC50 [1]: 100 nM

SMILES: COc1ccc(C[C@@H]2NC(=O)[C@H](CC(=O)O)NC(=O)CNC(=O)[C@H](CCCN=C(N)N)NC(=O)[C@@H]3CCCN3C(=O)[C@H](CC(N)=O)NC(=O)CC3(CCCCC3)SSC[C@@H](C(N)=O)NC(=O)[C@H](CCCN=C(N)N)NC2=O)cc1
- IC50 [1]: 5100 nM
- IC50 [2]: 31 nM

SMILES: COc1ccc(C[C@@H]2NC(=O)[C@H](CC(=O)O)NC(=O)CNC(=O)[C@H](CCCNC(=N)N)NC(=O)[C@@H]3CCCN3C(=O)[C@H](CC(N)=O)NC(=O)[C@@H](NC(C)=O)CSSC[C@@H](C(N)=O)NC(=O)[C@H](CC(C)C)NC2=O)cc1
- IC50 [2]: 248 nM

SMILES: COc1ccc(C[C@@H]2NC(=O)[C@H](CC(=O)O)NC(=O)CNC(=O)[C@H](CCCN=C(N)N)NC(=O)[C@@H]3CCCN3C(=O)[C@H](CC(N)=O)NC(=O)CCSSC[C@@H](C(N)=O)NC(=O)[C@H](CCCN=C(N)N)NC2=O)cc1
- IC50 [1]: 6000 nM

SMILES: CCCCOc1ccc(C[C@@H]2NC(=O)[C@H](CC(=O)O)NC(=O)CNC(=O)[C@H](CCCNC(=N)N)NC(=O)[C@@H]3CCCN3C(=O)[C@H](CC(N)=O)NC(=O)[C@@H](NC(C)=O)CSSC[C@@H](C(N)=O)NC(=O)[C@H](CCCNC(=N)N)NC2=O)cc1
- IC50 [2]: 6 nM

SMILES: CC[C@H](C)[C@@H]1NC(=O)[C@@H](NC(C)=O)CSSC[C@@H](C(N)=O)NC(=O)[C@H](CCCNC(=N)N)NC(=O)[C@H](Cc2ccc(OC)cc2)NC(=O)[C@H](CC(=O)O)NC(=O)CNC(=O)[C@H](CCCNC(=N)N)NC(=O)[C@@H]2CCCN2C1=O
- IC50 [2]: 3 nM

SMILES: COc1ccc(C[C@@H]2NC(=O)[C@H](CC(=O)O)NC(=O)CNC(=O)[C@H](CCCNC(=N)N)NC(=O)[C@@H]3CCCN3C(=O)[C@H](CC(N)=O)NC(=O)[C@@H](NC(C)=O)CSSC[C@@H](C(N)=O)NC(=O)[C@H](CCCNC(N)=O)NC2=O)cc1
- IC50 [1]: 440 nM
- IC50 [2]: 352 nM

SMILES: COc1ccc(C[C@@H]2NC(=O)[C@H](CC(=O)O)NC(=O)CNC(=O)[C@H](CCCNC(=N)N)NC(=O)[C@@H]3CCCN3C(=O)[C@H](CC(N)=O)NC(=O)[C@@H](NC(C)=O)CSSC[C@@H](C(N)=O)NC(=O)[C@H](CCCCN)NC2=O)cc1
- IC50 [1]: 1560 nM
- IC50 [2]: 38 nM

SMILES: COc1ccc(C[C@@H]2NC(=O)[C@H](CC(=O)O)NC(=O)CNC(=O)[C@H](CCCNC(=N)N)NC(=O)[C@@H]3CCCN3C(=O)[C@H](CC(N)=O)NC(=O)[C@@H](NC(C)=O)CSSC[C@@H](C(N)=O)NC(=O)[C@H](CCC(=O)O)NC2=O)cc1
- IC50 [1]: 6240 nM
- IC50 [2]: 20 nM
